Data reported in patent US20210214434A1.

Protein sequences, listed by entry. Tags and fused reporters are not part of them. Residues count along the entry.
UniProt P55899, 24-365, chain 1 of 2: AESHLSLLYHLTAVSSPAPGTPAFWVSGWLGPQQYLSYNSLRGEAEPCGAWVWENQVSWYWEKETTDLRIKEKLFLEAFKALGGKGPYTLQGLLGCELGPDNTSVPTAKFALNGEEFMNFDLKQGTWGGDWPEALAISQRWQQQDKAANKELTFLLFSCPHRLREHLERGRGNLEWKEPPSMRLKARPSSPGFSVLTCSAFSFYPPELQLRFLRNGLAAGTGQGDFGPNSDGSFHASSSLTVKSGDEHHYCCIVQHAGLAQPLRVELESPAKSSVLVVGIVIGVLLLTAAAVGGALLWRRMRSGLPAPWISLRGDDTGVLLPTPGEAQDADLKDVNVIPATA

How the values were obtained:
[1] = molecular target: human CD64 receptor expressed by Jurkat cells (Jurkat-CD64) (human) (UniProt P12314); assay: flow cytometry competition on Jurkat-CD64 cells, displacement of Rituxan-A488 (25 µg/ml)
[2] = molecular target: human CD16aH receptor on transfected Jurkat cells (Jurkat-CD16aH) (human) (UniProt P08637); assay: flow cytometry competition on Jurkat-CD16aH cells, displacement of mAb 3G8-PE (0.5 µg/ml)
[3] = molecular target: HisTag hCD16aV receptor (R&D System) (human) (UniProt P08637); assay: BLI (Octet), HisTag hCD16aV on anti-Penta-HIS biosensors, 1/1 model; SD 72.7
[4] = molecular target: human FcRn receptor expressed by Jurkat cells (Jurkat-FcRn) (human) (UniProt P55899); assay: flow cytometry competition on Jurkat-FcRn cells, displacement of Rituxan-A488 (25 µg/ml), pH 6
[5] = molecular target: human CD64 receptor expressed by Jurkat cells (Jurkat-CD64) (human) (UniProt P12314); assay: cell-based or functional assay
[6] = molecular target: Fc receptors on the surface of the effector cells; assay: cell-based or functional assay

Q: With “wild-type Fc fragment Fc-WT or Fc-Rec, obtained by digesting with papain an IgG1 produced in transgenic goat milk (from UniProt P01857 108-330)” as the substance, how does the IC50 [1] read?
A: 176 nM

Q: What about the IC50 [2] of the same substance?
A: 282 nM

Q: What about the Kd [3] of the same substance?
A: 314 nM

Q: What about the IC50 [4] of the same substance?
A: 476 nM

Q: And the Inhibition of the secretion of IL-2 of the Jurkat cells transfected with CD64 (IC 25%, nM) [5]?
A: 926 nM

Q: What about the Inhibition of the secretion of IL-2 of the Jurkat cells transfected with CD64 (IC 50%, nM) [5] of the same substance?
A: < 1950 nM

Q: What about the Inhibition of the lysis of the red blood cells medited by the anti-D AD1 (IC 25%, nM) [6] of the same substance?
A: 82 nM

Q: And the Inhibition of the lysis of the red blood cells medited by the anti-D AD1 (IC 50%, nM) [6]?
A: 1500 nM
